Laboratory results reported in patent publication US20210284618A1, “FURANOCHALCONES AS INHIBITORS OF CYP1A1, CYP1A2 AND CYP1B1 FOR CANCER CHEMOPREVENTION” (Council of Scientific & Industrial Research, priority 2016, published 2021).

Molecular target: T1, CYP1A1 (Homo sapiens, UniProt P04798)
T1 construct: host or cells: yeast microsomes (Saccharosomes)
T1 sequence (P04798 1-512): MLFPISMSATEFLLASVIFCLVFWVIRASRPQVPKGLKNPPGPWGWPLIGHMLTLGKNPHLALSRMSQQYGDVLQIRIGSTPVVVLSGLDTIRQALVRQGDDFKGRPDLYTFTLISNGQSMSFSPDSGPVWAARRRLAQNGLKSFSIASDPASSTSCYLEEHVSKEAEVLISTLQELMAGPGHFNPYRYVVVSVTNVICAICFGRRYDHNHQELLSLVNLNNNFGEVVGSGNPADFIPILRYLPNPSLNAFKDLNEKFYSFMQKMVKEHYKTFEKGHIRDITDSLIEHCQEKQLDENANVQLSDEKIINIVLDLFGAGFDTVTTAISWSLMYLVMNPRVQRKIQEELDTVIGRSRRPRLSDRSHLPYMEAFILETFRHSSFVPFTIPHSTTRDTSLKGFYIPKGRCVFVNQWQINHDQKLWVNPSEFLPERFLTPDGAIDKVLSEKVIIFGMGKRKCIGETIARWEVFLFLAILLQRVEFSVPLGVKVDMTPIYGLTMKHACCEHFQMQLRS
Assay: CYP1A1 inhibition in HEK293 cells transfected with pcDNA3.1/CYP1A1 (live cells)
Format: cell-based
Conditions: 5 μM EROD
Procedure: Example 26. In-vitro CYP450 inhibition in HEK293 cells transfected with pcDNA3.1/CYP1A1 against 5 μM EROD. This assay was performed in a similar way as described above in examples 24 and 25. The HEK293 cells used here was procured from ‘European Collection of Authenticated Cell Cultures’ (catalog number. ECACC 85120602).
Example 27. IC50 determination of selected compounds against CYP1A1 and other CYP P450s in HEK293 cells transfected with pcDNA3.1/CYP1A1: The IC50 values of selected compound 8 and 6 against CYP1A1 in Saccharosomes and in HEK293 cells transfected with pcDNA3.1/CYP1A1 was determined (Table 5).

Compound: COc1c2occc2c(OC)c2c(=O)cc(C)oc12 [Compound 1, Khellin, reference compound]
- % inhibition of CYP1A1 in HEK293 cells at 10 μM: 81% and 81.3%

Where “and” joins values, the source holds several entries; their conditions need not be identical. Equal entries are not always repeated.
